Reference: patent US6531446B1, “Peptides having biological activity” (Korea Advanced Institute of Science and Technology, priority 1998, dated 2003)

How the values were obtained:
Assay type in all cases: cell-based
Bacillus subtilis = details: 18 h
Method: (§1) By using the peptides as in Example 1, the minimal inhibitory concentration of the peptides were determined against a variety of microorganisms. Bacteria and fungi were incubated overnight in Mller-Hinton and Saboraud media, respectively, at 37 and 30° C., respectively, and were inoculated in media for 2 hours to a midlogarithmic phase. After diluting the bacteria and fungi to 10^4-10^5 per 1 ml, they were inoculated into a 96-well plate containing serially diluted peptides and incubated for additional 18 hours. The minimal inhibitory concentration was determined at a concentration that inhibits the growth of the microorganisms by measuring the absorbance.

Candida albicans = details: 18 h
Method: as §1

Cryptococcus neoformans = details: 18 h
Method: as §1

Escherichia coli = details: 18 h
Method: as §1

Saccharomyces cerevisiae = details: 18 h
Method: as §1

Salmonella typhimurium = details: murium, 18 h
Method: as §1

Serratia sp. = details: 18 h
Method: as §1

Staphylococcus aureus = details: 18 h
Method: as §1

Streptococcus mutans = details: 18 h
Method: as §1

Streptococcus pneumoniae = details: 18 h
Method: as §1

SMILES	Minimal Inhibitory Concentrations (Bacillus subtilis) [µg/mL]	Minimal Inhibitory Concentrations (Candida albicans) [µg/mL]	Minimal Inhibitory Concentrations (Cryptococcus neoformans) [µg/mL]	Minimal Inhibitory Concentrations (Escherichia coli) [µg/mL]	Minimal Inhibitory Concentrations (Saccharomyces cerevisiae) [µg/mL]	Minimal Inhibitory Concentrations (Salmonella typhimurium) [µg/mL]	Minimal Inhibitory Concentrations (Serratia sp.) [µg/mL]	Minimal Inhibitory Concentrations (Staphylococcus aureus) [µg/mL]	Minimal Inhibitory Concentrations (Streptococcus mutans) [µg/mL]	Minimal Inhibitory Concentrations (Streptococcus pneumoniae) [µg/mL]
CC(C)C[C@H](NC(=O)[C@H](CC(C)C)NC(=O)[C@H](CCCNC(=N)N)NC(=O)[C@H](Cc1c[nH]cn1)NC(=O)[C@@H](NC(=O)[C@H](CCCNC(=N)N)NC(=O)CNC(=O)[C@@H](NC(=O)[C@@H]1CCCN1C(=O)[C@H](Cc1ccccc1)NC(=O)[C@H](CCC(N)=O)NC(=O)[C@H](CC(C)C)NC(=O)CNC(=O)[C@H](C)NC(=O)[C@@H](N)CCCNC(=N)N)C(C)C)C(C)C)C(N)=O [Seq No. 10]	50	>200	100	50	>200	50	25	200	50	100
CC(C)C[C@H](NC(=O)CNC(=O)[C@H](C)N)C(=O)N[C@@H](CCC(N)=O)C(=O)N[C@@H](Cc1ccccc1)C(=O)N1CCC[C@H]1C(=O)N[C@H](C(=O)NCC(=O)N[C@@H](CCCNC(=N)N)C(=O)N[C@H](C(=O)N[C@@H](Cc1c[nH]cn1)C(=O)N[C@@H](CCCNC(=N)N)C(=O)N[C@@H](CC(C)C)C(=O)N[C@@H](CC(C)C)C(=O)N[C@@H](CCCNC(=N)N)C(=O)N[C@@H](CCCCN)C(N)=O)C(C)C)C(C)C [Seq No. 2]	4	8	8	2	8	4	2	8	4	4
CC(C)C[C@H](NC(=O)[C@H](CC(C)C)NC(=O)[C@H](CCCNC(=N)N)NC(=O)[C@H](Cc1c[nH]cn1)NC(=O)[C@@H](NC(=O)[C@H](CCCNC(=N)N)NC(=O)CNC(=O)[C@@H](NC(=O)[C@@H]1CCCN1C(=O)[C@H](Cc1ccccc1)NC(=O)[C@H](CCC(N)=O)NC(=O)[C@@H](N)CC(C)C)C(C)C)C(C)C)C(=O)N[C@@H](CCCNC(=N)N)C(=O)N[C@@H](CCCCN)C(=O)O [Seq No. 4]	8	36	62	8	36	18	4	18	8	18
CC(C)C[C@H](NC(=O)[C@H](CC(C)C)NC(=O)[C@H](CCCNC(=N)N)NC(=O)[C@H](Cc1c[nH]cn1)NC(=O)[C@@H](NC(=O)[C@H](CCCNC(=N)N)NC(=O)CNC(=O)[C@@H](NC(=O)[C@@H]1CCCN1C(=O)[C@@H](N)Cc1ccccc1)C(C)C)C(C)C)C(=O)N[C@@H](CCCNC(=N)N)C(=O)N[C@@H](CCCCN)C(N)=O [Seq No. 6]	32	32	>100	32	>100	64	16	32	32	32
CC(C)C[C@H](NC(=O)[C@H](CCCNC(=N)N)NC(=O)[C@H](Cc1c[nH]cn1)NC(=O)[C@@H](NC(=O)[C@H](CCCNC(=N)N)NC(=O)CNC(=O)[C@@H](NC(=O)[C@@H]1CCCN1C(=O)[C@H](Cc1ccccc1)NC(=O)[C@H](CCC(N)=O)NC(=O)[C@H](CC(C)C)NC(=O)CNC(=O)[C@H](C)NC(=O)[C@@H](N)CCCNC(=N)N)C(C)C)C(C)C)C(N)=O [Seq No. 11]	100	>200	200	200	>200	200	100	200	100	100
CC(C)C[C@H](NC(=O)[C@H](CC(C)C)NC(=O)[C@H](CCCNC(=N)N)NC(=O)[C@H](Cc1c[nH]cn1)NC(=O)[C@@H](NC(=O)[C@H](CCCNC(=N)N)NC(=O)CNC(=O)[C@@H](NC(=O)[C@@H]1CCCN1C(=O)[C@H](Cc1ccccc1)NC(=O)[C@@H](N)CCC(N)=O)C(C)C)C(C)C)C(=O)N[C@@H](CCCNC(=N)N)C(=O)N[C@@H](CCCCN)C(=O)O [Seq No. 5]	18	62	62	36	62	18	18	62	36	18
CC(C)C[C@H](NC(=O)CN)C(=O)N[C@@H](CCC(N)=O)C(=O)N[C@@H](Cc1ccccc1)C(=O)N1CCC[C@H]1C(=O)N[C@H](C(=O)NCC(=O)N[C@@H](CCCNC(=N)N)C(=O)N[C@H](C(=O)N[C@@H](Cc1c[nH]cn1)C(=O)N[C@@H](CCCNC(=N)N)C(=O)N[C@@H](CC(C)C)C(=O)N[C@@H](CC(C)C)C(=O)N[C@@H](CCCNC(=N)N)C(=O)N[C@@H](CCCCN)C(N)=O)C(C)C)C(C)C [Seq No. 3]	4	8	8	2	8	4	2	8	4	4
CC(C)C[C@H](NC(=O)CNC(=O)[C@H](C)NC(=O)[C@@H](N)CCCNC(=N)N)C(=O)N[C@@H](CCC(N)=O)C(=O)N[C@@H](Cc1ccccc1)C(=O)N1CCC[C@H]1C(=O)N[C@H](C(=O)NCC(=O)N[C@@H](CCCNC(=N)N)C(=O)N[C@H](C(=O)N[C@@H](Cc1c[nH]cn1)C(=O)N[C@@H](CCCNC(=N)N)C(=O)N[C@@H](CC(C)C)C(=O)N[C@@H](CC(C)C)C(=O)N[C@@H](CCCNC(=N)N)C(=O)O)C(C)C)C(C)C [Seq No. 9]	12	50	50	12	100	25	12	50	25	25
